{
  "source": "patent US20060234327A1",
  "about": "“Methods for identifying enzyme inhibitors and protein kinases” (priority 2003, published 2006)",
  "biological_target": "T1, ALK5 (Homo sapiens, UniProt P36897)",
  "T1 construct": "recombinantly expressed and purified kinase domain of the transforming growth factor (TGF)-β type I receptor; made in house; host or cells: baculovirus expression system",
  "T1 sequence (P36897 205-495 limits assumed)": "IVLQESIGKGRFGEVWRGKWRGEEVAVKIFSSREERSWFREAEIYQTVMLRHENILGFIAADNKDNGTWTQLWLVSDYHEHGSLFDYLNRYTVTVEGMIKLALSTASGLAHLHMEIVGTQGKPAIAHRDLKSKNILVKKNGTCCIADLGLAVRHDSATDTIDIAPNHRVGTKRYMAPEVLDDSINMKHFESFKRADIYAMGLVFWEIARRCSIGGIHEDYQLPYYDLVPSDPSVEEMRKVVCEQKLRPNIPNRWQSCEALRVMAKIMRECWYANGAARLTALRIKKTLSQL",
  "test": "Biotin-FSBA binding and competition detected by Western blot (avidin-HRP)",
  "conditions": "biotin-FSBA 20 μM",
  "data": [
    {"smiles": "CN[C@@H]1C[C@H]2O[C@@](C)([C@@H]1OC)n1c3ccccc3c3c4c(c5c6ccccc6n2c5c31)C(=O)NC4", "note": "[staurosporine]", "values": [
      {"measurement": "Staurosporine concentration at which biotin-FSBA/ALK5 bands were no longer visible", "result": "≥ 5.0", "unit": "µM"}
    ]}
  ]
}
